Molecular target: LFA-1 (CD18/CD11a) binding to ICAM-1 (Homo sapiens, UniProt P05107+P20701)
Test: Assay to determine inhibition of LFA-1 binding to ICAM-1
Settings: read-out: LFA/ICAM1 Kd; immunopurified LFA-1 binding to plate-bound sICAM-1
Excerpt: Assay to Determine Inhibition of LFA-1 Binding to ICAM-1
This assay protocol is designed to study the direct antagonism, by a test compound, of the interaction of ICAM-1 with the Leukointegrin CD18/CD11a (LFA-1).
LFA-1 is immunopurified using the TS2/4 antibody from a 20 g pellet of human JY or SKW3 cells, utilizing a protocol previously described (Dustin, M. J.; et al., J. Immunol. 1992, 148, 2654-2660). The LFA-1 is purified from SKW3 lysates by immunoaffinity chromatography on TS2/4 LFA-1 mAb Sepharose and eluted at pH 11.5 in the presence of 2 mM MgCl2 and 1% octylglucoside. After collection and neutralization of fractions from the TS2/4 column, samples are pooled and precleared with Protein G agarose.
A soluble form of ICAM-1 is constructed, expressed, purified and characterized as previously described (Marlin, S.; et al., Nature, 1990, 344, 70-72 and see Arruda, A.; et al., Antimicrob. Agents Chemother. 1992, 36, 1186-1192). […]
LFA-1 binding to ICAM-1 is monitored by first incubating sICAM-1 at 40 μg/mL in Dulbecco's phosphate buffered saline with calcium and magnesium, additional 2 mM MgCl2 and 0.1 mM PMSF (Diluting Buffer) in a 96-well plate for 30 min at room temperature. […] The bound LFA-1 is detected by the addition of a polyclonal antibody directed against a peptide corresponding to the CD18 cytoplasmic tail in a 1:100 dilution with Diluting Buffer and 1% BSA and allowed to incubate for 45 min at 37° C. Wells are washed 3 times with Diluting Buffer and the bound polyclonal antibody is detected by the addition of a 1:4000 dilution of horse radish peroxidase conjugated to goat immunoglobulin directed against rabbit immunoglobulin. This reagent is allowed to incubate for 20 min at 37° C., wells are washed as above and the substrate for the horse radish peroxidase is added to each well to develop a quantitative colorimetric signal proportional to the amount of LFA-1 bound to sICAM-1. […]

Amino acid sequences for entries named in this document (tags omitted). Residues count along the entry.
UniProt P05107, 23-769 limits assumed: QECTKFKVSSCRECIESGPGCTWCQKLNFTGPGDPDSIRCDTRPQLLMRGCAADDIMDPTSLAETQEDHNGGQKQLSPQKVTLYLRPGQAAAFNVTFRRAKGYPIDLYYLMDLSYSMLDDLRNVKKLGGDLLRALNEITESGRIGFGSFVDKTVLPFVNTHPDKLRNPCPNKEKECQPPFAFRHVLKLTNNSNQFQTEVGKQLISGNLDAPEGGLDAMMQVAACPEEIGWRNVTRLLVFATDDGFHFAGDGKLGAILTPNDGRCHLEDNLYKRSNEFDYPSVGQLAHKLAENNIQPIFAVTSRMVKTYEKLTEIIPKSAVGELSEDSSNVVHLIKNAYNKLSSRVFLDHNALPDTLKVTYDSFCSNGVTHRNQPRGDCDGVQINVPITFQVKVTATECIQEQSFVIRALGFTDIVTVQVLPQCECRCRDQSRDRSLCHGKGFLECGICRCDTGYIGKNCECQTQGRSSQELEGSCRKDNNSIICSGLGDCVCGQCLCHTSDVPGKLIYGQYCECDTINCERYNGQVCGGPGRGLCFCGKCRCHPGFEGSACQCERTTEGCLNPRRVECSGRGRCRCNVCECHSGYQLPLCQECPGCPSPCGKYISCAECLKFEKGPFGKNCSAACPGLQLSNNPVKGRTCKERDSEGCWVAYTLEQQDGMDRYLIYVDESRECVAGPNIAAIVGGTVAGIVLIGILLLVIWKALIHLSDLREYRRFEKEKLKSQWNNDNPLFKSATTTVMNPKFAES
UniProt P20701, 26-1170 limits assumed: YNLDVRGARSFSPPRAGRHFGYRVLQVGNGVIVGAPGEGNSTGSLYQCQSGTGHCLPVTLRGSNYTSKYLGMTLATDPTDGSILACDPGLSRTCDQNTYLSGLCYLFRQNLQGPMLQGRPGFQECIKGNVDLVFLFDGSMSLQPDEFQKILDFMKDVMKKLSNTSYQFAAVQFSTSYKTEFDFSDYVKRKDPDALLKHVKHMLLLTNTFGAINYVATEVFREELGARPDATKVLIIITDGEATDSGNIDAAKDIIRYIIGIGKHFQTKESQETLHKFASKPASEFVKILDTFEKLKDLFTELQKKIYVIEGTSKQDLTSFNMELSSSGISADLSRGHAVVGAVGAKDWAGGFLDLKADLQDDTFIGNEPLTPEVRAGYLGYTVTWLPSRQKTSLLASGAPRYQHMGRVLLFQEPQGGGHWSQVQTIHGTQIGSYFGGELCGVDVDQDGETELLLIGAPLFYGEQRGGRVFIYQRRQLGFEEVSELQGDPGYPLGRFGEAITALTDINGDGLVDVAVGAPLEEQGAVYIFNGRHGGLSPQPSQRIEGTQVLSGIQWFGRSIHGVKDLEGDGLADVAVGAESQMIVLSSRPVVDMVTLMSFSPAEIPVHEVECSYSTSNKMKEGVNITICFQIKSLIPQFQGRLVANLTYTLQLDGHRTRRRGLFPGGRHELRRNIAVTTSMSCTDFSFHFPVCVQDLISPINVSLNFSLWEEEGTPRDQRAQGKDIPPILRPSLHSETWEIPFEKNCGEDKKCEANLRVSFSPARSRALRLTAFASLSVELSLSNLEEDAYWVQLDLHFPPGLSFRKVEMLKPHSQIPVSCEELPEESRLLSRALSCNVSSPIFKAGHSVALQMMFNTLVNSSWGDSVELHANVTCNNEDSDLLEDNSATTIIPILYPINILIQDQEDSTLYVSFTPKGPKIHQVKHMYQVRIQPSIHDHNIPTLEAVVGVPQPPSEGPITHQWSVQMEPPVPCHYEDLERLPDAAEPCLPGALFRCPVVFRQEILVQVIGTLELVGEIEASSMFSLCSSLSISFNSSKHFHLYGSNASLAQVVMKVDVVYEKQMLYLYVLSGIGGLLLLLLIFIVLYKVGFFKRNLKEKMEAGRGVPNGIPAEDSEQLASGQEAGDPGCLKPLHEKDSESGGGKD

In order of rising Kd:
1. Cc1noc(C2(NC(=O)C3(NC(=O)c4cnc5n4[C@](C)(Cc4ccc(C#N)cc4)C(=O)N5c4cc(Cl)cc(Cl)c4)CC3)CC2)n1  6.6 nM
2. C[C@@]1(Cc2ccc(C#N)cc2)C(=O)N(c2cc(Cl)cc(Cl)c2)c2ncc(C(=O)NC3(C(=O)NC4(c5nc(N6CCOCC6)no5)CC4)CC3)n21  8.2 nM
3. C[C@H](NC(=O)c1cnc2n1[C@](C)(Cc1ccc(C#N)cc1)C(=O)N2c1cc(Cl)cc(Cl)c1)C(=O)N[C@H]1CC[C@@H](C(=O)O)C1  420 nM

From patent publication US8552205B2, “Derivatives of 6,7-dihydro-5H-imidazo[1,2-alpha]imidazole-3-carboxylic acid amides” (Boehringer Ingelheim International GmbH, priority 2007, dated 2013)
